For one compound, inhibition in vivo results are on record in US6545000B1, “[1,2,4]triazolo[1,5-c]pyrimidine derivatives” (Kyowa Hakko Kogyo Co., Ltd., priority 1998, dated 2003).

For the test, the system named is CGS 21680-induced catalepsy. As to the kind of experiment: Activity on CGS 21680-induced catalepsy. In kind it is in vivo. Conditions: Mus musculus, po, 1 h, read-out: Remission ratio (%).

With `CC(C)(O)CCN1CCN(c2cc3nc(-c4ccco4)nn3c(N)n2)CC1` [Compound 7, 5-Amino-2-(2-furyl)-7-(4-(3-hydroxy-3-methylbutyl)piperazinyl)[1,2,4]triazolo[1,5-c]pyrimidine], the inhibition in vivo at 10 mg/kg was 84%.
